## Antibody variant affinities, Ab-14 heavy chain, assay 1

The measurements come from Engelhart et al. 2022 (doi:10.1038/s41597-022-01779-4) through the FLAb antibody collection.

Binding partner: SARS-CoV-2 spike HR2 peptide, sequence PDVDLGDISGINAS.

Ab-14 is the parent antibody, in scFv form: VH, then a 15-residue (Gly4Ser)3 linker, then VL. The light chain is unchanged in all variants.
VH: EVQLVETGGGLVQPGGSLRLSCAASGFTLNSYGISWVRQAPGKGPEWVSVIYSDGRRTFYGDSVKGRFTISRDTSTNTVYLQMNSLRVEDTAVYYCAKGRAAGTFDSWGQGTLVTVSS
VL: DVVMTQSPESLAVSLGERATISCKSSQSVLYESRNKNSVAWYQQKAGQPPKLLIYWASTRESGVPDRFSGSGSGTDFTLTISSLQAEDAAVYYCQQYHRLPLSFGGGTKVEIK

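Phage display of a naive human antibody library on the peptide gave the parent. AAYL49 was designed without a model: most single CDR substitutions and a random sample of double and triple ones. The assay is AlphaSeq: two haploid yeast populations carry antibody and antigen on their surface. Mating (16 h, 30 °C) was followed by selection of diploids and sequencing of their barcodes. A regression on co-assayed BCL2-family reference pairs converts the normalised counts of each replicate to an apparent Kd. The assay was run in three technical replicates.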

The parent's heavy chain CDRs are GFTLNSYGIS, VIYSDGRRTFYGDSVK, GRAAGTFDS; each variant's own CDRs replace them letter for letter. All variants listed here change K65 of the VH, counted from its first residue. Kd is apparent (estimated from mating counts) and averaged on the log scale over replicates with a signal. Smaller is tighter. "nd" means that the variant was in the library but no mating with the target was seen in any replicate; the authors take this as a sign of poor binding, and no number exists. As a blank, each scFv also met three strains without target: over library AAYL49, 15% of these pairings were detected, typically at 11 µM and seldom below 680 nM. Also given: how often the same scFv was detected with the empty control strains.

For GFTLNCYGIS | VIYSDGRMTFYGDSVC | GRAAGTFDS, the assay gave 2.2 µM (1 of 3 replicates; controls 0 of 9). The variant WFTLNSYGWS | VIYSDGRRTFYGDSVI | GRAAGTFDS showed nd (0 of 3 replicates; controls 0 of 9). The variant GFTNNSNGIS | VIYSDGRRTFYGDSVH | GRAAGTFDS gave nd (0 of 3 replicates; controls 1 of 9). For GFTLNSKGIS | VIYSDGRRTFYGDSVH | GRAAGTIDS, the assay gave 950 nM (1 of 3 replicates; controls 0 of 9). For GFTLNSYGIS | VIYSDGSQTFYGDSVY | GRAAGTFDS, the assay gave nd (0 of 3 replicates; controls 0 of 9). The variant GFSLNSYGIS | VIYSDGRRTRYGDSVT | GRAAGTFDS showed 32 nM (3 of 3 replicates; controls 2 of 9). The variant GFTLNSYGIS | VKASDGRRTFYGDSVS | GRAAGTFDS gave 34 µM (2 of 3 replicates; controls 4 of 9). With GFTLNSYGAS | VIYSDGRRTFYGDSVN | HRAAGTFDS the result was nd (0 of 3 replicates; controls 0 of 9).

The variant GFTLVSYGIS | VIYSDGRRTFYIDSVE | GRAAGTFDS showed 700 nM (3 of 3 replicates; controls 0 of 9). The variant GFTLNSYGIS | VIYSDGRRTMYGDSVW | MRAAGTFDS gave nd (0 of 3 replicates; controls 2 of 9). The variant GFTLNSYGIS | VIYSDGRRTFYGDSVR | GRAAGTFDS showed 120 µM (2 of 3 replicates; controls 6 of 9). The variant GFTLNPYGIS | VIYSDGRRTFYGDSVH | GRAAGTTDS gave 1.7 µM (2 of 3 replicates; controls 2 of 9). The variant GFTLNSYGIS | PIYSDGRRTFYWDSVT | GRAAGTFDS showed 15 µM (1 of 3 replicates; controls 1 of 9). With GFTLNSYGIS | VIYSDGRRTFYGDSVR | GRAQGTHDS the result was 16 nM (3 of 3 replicates; controls 1 of 9). For GFTLNSYGNS | VIYSDGRRTFYGDSVP | GRGAGTFDS, the assay gave 29 µM (1 of 3 replicates; controls 3 of 9). For GFTLNSYGIS | VIYSDGRRTFYGDSVI | GRAAGTFDS, the assay gave 17 nM (3 of 3 replicates; controls 0 of 9).

The variant GFLLNSYGIY | VIYSDGRRTFYGDSVQ | GRAAGTFDS showed 160 nM (3 of 3 replicates; controls 4 of 9). The variant GFTLNSYGIS | VIYSDGRRTIYGDSVP | GRAAGVFDS gave 280 µM (1 of 3 replicates; controls 2 of 9). The variant GFTLNSYGIS | VIRSDGRRTFYGDSVV | CRAAGTFDS gave nd (0 of 3 replicates; controls 4 of 9). With GFTLNSYGIS | VIYSDGRRTFQGDSVA | GRAAATFDS the result was 1.3 µM (2 of 3 replicates; controls 1 of 9). For GFTLNSYGIS | VIYSDGRRTFYGDPVE | GRAACTFDS, the assay gave nd (0 of 3 replicates; controls 0 of 9). The variant GFTLNSYGIS | VIYSDGRRTFYGDIVH | GRARGTFDS gave 1.7 µM (2 of 3 replicates; controls 3 of 9). The variant GFTLNSYGIS | VIYSDGRRTFVGDSVG | GRAAGRFDS showed nd (0 of 3 replicates; controls 1 of 9). With GFTLNSYGIS | VIYSSGRRTFYGDSVQ | GRAHGTFDS the result was 25 µM (1 of 3 replicates; controls 2 of 9).

The variant GFTLNSYGIS | DIYSDGRRTFYGDSVP | GRVAGTFDS gave 4.6 µM (1 of 3 replicates; controls 2 of 9). With GETLNSYGIS | VIYSDGRRTFYGDSVT | GRAAGTFDS the result was nd (0 of 3 replicates; controls 1 of 9). The variant GFTLNDYGIS | VIYSDGRRTAYGDSVV | GRAAGTFDS showed 1.0 nM (3 of 3 replicates; controls 3 of 9). With GFTLNSPGIS | VIYSDGRRTPYGDSVF | GRAAGTFDS the result was 5.3 µM (1 of 3 replicates; controls 1 of 9). For GFTLSSYGIS | VIYSDGRRPFYGDSVP | GRAAGTFDS, the assay gave nd (0 of 3 replicates; controls 1 of 9). The variant GFTLNSGGIS | HIYSDGRRTFYGDSVC | GRAAGTFDS gave 150 µM (2 of 3 replicates; controls 4 of 9). With GFTLNSYGIS | VIYSDGRRTFYGGSVC | GFAAGTFDS the result was 740 nM (3 of 3 replicates; controls 0 of 9). For GFTLNSYGIS | VHYSDGDRTFYGDSVH | GRAAGTFDS, the assay gave nd (0 of 3 replicates; controls 2 of 9).

The variant GFTLNSYGIS | VIYSDGRITFYGDSVQ | GRAAGTTDS showed 44 µM (1 of 3 replicates; controls 1 of 9). With GFTLNSYLIS | VIYSDGRRTFYGDSVF | GRAAGVFDS the result was 5.5 µM (2 of 3 replicates; controls 1 of 9). For GFTLNSYGIS | VIYGDGRRTFYGDSVQ | GRAAGTFTS, the assay gave 130 nM (3 of 3 replicates; controls 2 of 9). With GFTLNSYGIS | VIYSDGRRTFCGDMVW | GRAAGTFDS the result was nd (0 of 3 replicates; controls 0 of 9). For GFTLNSYGIS | VIYSDGRRTFYGYSVW | GRAADTFDS, the assay gave nd (0 of 3 replicates; controls 0 of 9). The variant GFTLNSYGIS | VIYSDGRFTFYGDSVC | GRAAGTFDS gave 38 µM (2 of 3 replicates; controls 5 of 9). The variant GFTLNSYGIS | VIYSDGRATFYGDSVQ | YRAAGTFDS gave nd (0 of 3 replicates; controls 2 of 9). With GFELNSYGIS | VCYSDGRRTFYGDSVM | GRAAGTFDS the result was 210 µM (1 of 3 replicates; controls 2 of 9).

The variant SFTLNSYGIS | VIYSEGRRTFYGDSVW | GRAAGTFDS showed nd (0 of 3 replicates; controls 6 of 9). For GFTLNSYGIS | VIYSDGRRTEGGDSVA | GRAAGTFDS, the assay gave nd (0 of 3 replicates; controls 5 of 9). The variant GFTLNSYGIS | VIYSDGRRTFYGDSVR | GRAAGTFFS showed 63 nM (3 of 3 replicates; controls 1 of 9). For GFTLNSYGIF | VIYSDGRRTFYGDSVQ | GRAAGTGDS, the assay gave 78 µM (1 of 3 replicates; controls 2 of 9).

The first 5 entries again:

GFTLNCYGIS | VIYSDGRMTFYGDSVC | GRAAGTFDS: 2.2 µM (1 of 3 replicates; controls 0 of 9).
WFTLNSYGWS | VIYSDGRRTFYGDSVI | GRAAGTFDS: nd (0 of 3 replicates; controls 0 of 9).
GFTNNSNGIS | VIYSDGRRTFYGDSVH | GRAAGTFDS: nd (0 of 3 replicates; controls 1 of 9).
GFTLNSKGIS | VIYSDGRRTFYGDSVH | GRAAGTIDS: 950 nM (1 of 3 replicates; controls 0 of 9).
GFTLNSYGIS | VIYSDGSQTFYGDSVY | GRAAGTFDS: nd (0 of 3 replicates; controls 0 of 9).